The results in this text go back to article PMC8442681 (Chemical Science, 2021).

For this assay, the system named is acute myeloid leukemia (AML) cell line HL60. The note with it: 72 h co-treatment of HL60 with bortezomib.

`O=C(CCCCCCC(=O)Nc1ccccc1)NO` [SAHA, suberoylanilide hydroxamic acid]: the “ZIP synergy score (mean)” value was 7.18.
